Values quoted from earlier work, collected in article PMC9781609, “PET Imaging of the Neurotensin Targeting Peptide NOTA-NT-20.3 Using Cobalt-55, Copper-64 and Gallium-68” (Pharmaceutics, 2022).

By UniProt entry, the sequences of proteins in these tests, tags left out.
UniProt P30989, whole entry: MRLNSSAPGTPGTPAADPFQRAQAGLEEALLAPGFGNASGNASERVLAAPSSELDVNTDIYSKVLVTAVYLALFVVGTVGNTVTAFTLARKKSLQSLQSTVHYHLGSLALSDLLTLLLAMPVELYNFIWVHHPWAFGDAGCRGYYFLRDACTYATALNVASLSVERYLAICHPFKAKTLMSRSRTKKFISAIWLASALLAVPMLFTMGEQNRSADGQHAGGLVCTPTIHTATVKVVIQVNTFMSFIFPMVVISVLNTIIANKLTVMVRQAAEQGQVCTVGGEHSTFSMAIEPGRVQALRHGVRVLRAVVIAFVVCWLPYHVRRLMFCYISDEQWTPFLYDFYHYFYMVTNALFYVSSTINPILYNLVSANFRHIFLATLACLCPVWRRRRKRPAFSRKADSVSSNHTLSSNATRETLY

How the values were obtained:
[1] = target: NTSR1 (Homo sapiens, UniProt P30989); conditions: cited from earlier work
Experimental: (§1) Neurotensin receptor imaging has emerged as a promising target for imaging and therapy. The endogenous neurotensin peptide has a short half-life in blood (<6 min), limiting its direct radiolabeling and use. Most developments in neurotensin receptor imaging have been focused on increasing serum stability and improving specificity for NTSR1 [1]. Previously, neurotensin receptor binding peptides have been investigated as imaging and therapeutic agents when radiolabeled with technetium-99m, indium-111, gallium-68, copper-64, actinium-225, and leutetium-177 [10, 11, 12, 13]. Specif ...

[2] = cited from earlier work
Experimental: as §1

CC(=O)N[C@@H](CCCCN)C(=O)N1CCC[C@H]1C(=O)N(C)[C@@H](CCCNC(=N)N)C(=O)N[C@@H](CCCNC(=N)N)C(=O)N1CCC[C@H]1C(=O)N[C@@H](Cc1ccc(O)cc1)C(=O)N[C@H](C(=O)N[C@@H](CC(C)C)C(=O)O)C(C)(C)C
IC50 [1]: 2.2 nM
serum stability [2]: > 250 h
